In test [1] the target is Adenosine A2A Receptor (Homo sapiens, UniProt P29274). Description: A2A Tag-lite HTRF assay. The note with it: read-out: A2A—Ki; Tag-lite Adenosine A2A labeled cells; fluorescent antagonist ligand 12.5 nM; tested form: TFA salt. A general note: Time-resolved FRET reads energy transfer from a long-lived donor to a nearby acceptor.
Test [2] deals with human adenosine A2B receptor (Homo sapiens, UniProt P29275). Description: Adenosine A2B Receptor cyclic AMP GS Assay. It is filed as cell-based. The note with it: read-out: A2B—cAMP_EC50; HEK-293 cells expressing human A2B; agonist NECA 12 nM; cAMP accumulation; tested form: TFA salt. In general terms: Changes in cAMP serve as a functional read-out for many G protein-coupled receptors.

Sequences of proteins named here, by UniProt entry; tags and fusion partners are left off. A change or cut given only in a name is not applied to a line headed by its entry.
UniProt P29275, whole entry: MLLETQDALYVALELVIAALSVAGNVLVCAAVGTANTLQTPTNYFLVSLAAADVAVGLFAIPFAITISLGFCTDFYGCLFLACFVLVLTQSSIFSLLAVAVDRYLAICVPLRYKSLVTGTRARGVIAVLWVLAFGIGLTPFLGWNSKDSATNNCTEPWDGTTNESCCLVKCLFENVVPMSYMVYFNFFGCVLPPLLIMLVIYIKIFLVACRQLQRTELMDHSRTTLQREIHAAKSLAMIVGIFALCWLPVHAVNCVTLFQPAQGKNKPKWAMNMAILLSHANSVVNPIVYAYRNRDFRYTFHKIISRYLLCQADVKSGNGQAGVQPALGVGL

Turning to `N#Cc1cccc(-c2nc(N)n3nc(Cn4nnc(-n5cccn5)n4)nc3c2-c2ccncn2)c1`, the Ki in test [1] is less than 10 nM. Besides, in test [2], the EC50 is less than 10 nM.

As a reminder, the Ki is the dissociation constant of the complex between target and ligand, obtained from inhibition or displacement.

These data come from US20220233529A1, “COMBINATION THERAPY COMPRISING A2A/A2B INHIBITORS, PD-1/PD-L1 INHIBITORS, AND ANTI-CD73 ANTIBODIES” (Incyte Corporation, priority 2020, published 2022).
